Key:
[1] = target: T1, fat cell β receptor (β3A -adrenergic receptor) (Rattus norvegicus, UniProt P26255); assay: Inhibition of BRL 37344-induced cAMP accumulation in transfected CHO cells; type: cell-based; settings: read-out: inhibition of BRL 37344-induced cAMP accumulation
T1 construct: expressed in transfected cells
T1 sequence (P26255 1-400): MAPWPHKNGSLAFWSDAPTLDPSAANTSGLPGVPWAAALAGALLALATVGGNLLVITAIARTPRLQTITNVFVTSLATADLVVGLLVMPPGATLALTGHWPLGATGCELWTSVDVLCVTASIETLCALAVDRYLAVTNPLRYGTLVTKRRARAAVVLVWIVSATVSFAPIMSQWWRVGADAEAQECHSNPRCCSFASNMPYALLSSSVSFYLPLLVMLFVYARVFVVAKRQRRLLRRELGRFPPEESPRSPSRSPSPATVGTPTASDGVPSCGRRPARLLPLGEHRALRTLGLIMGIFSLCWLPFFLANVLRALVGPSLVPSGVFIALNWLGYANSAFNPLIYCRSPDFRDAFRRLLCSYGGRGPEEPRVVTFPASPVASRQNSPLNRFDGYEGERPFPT
From the text: Using a protocol for cotransfection of CHO cells (a 1.5 kb fragment was excised from pBluescript using Saci (present in the multiple cloning site of the vector) and BamHI and inserted into the Sac/BamH/sites of PSVL (Pharmacie). CHO-K1 cells were cotransfected with pSVL and pMSVneo (neomycin resistance plasmid) F. Z. Chung, C. D. Wang, P. C. Potter, J. C. Venter and C. M. Fraser, J. Biol. Chem. 263, 4052 (1988) using the CaPO4 precipitation technique. Stable transfectants were obtained by growth of the cells in culture medium containing Geneticin (500 μg/ml); colonies derived from single cells were isolated and expanded.

β3A -adrenergic receptor = β3A -adrenergic receptor (Rattus norvegicus, UniProt P26255); assay: biochemical

Compound | inhibition at 100 µM [1] [%] | Kd (β3A -adrenergic receptor) [nM]
Cc1ccc(OCC(O)C(C)NC(C)C)c2c1CCC2 (centres unmarked) [118,51] | 60 | –
CC(C)(C)NCC(O)COc1cccc2[nH]c(C#N)c([125I])c12 (centres unmarked) [[^125 1]-ICYP, [^125 1]-iodocyanopindolol] | – | 1.3 ± 0.4

Source: patent publication US5418160A, “Cloned cell line expressing rat β3A adrenergic receptor” (The United States as represented by the Secretary of the …, priority 1991, dated 1995)
